The structures appear in SMILES notation. Several values for one entry are separate records, joined by “and”; a condition that tells them apart may be missing. Equal values may be shown once. Only a part is listed here, and it is no random draw. Activity calls are given as the source filed them.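 How the source made its calls: active means compounds that reduced the stress-induced luciferase reporter signal by more than about 70% of percent inhibition (limit read from the data); inactive means the rest.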

In PubChem BioAssay AID2732 (Emory University Molecular Libraries Screening Center, 2010) one finds inhibition data, which are given here for 102 molecules.

A short description of this assay: blockers of ER-stress CHOP reporter expression – cell-based, unfolded protein response, luciferase reporter, primary screen (AID 2732).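 Further: 0% = tunicamycin plus vehicle and 100% = wells without tunicamycin.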 Conditions: CHO-K1 CHOP-promoter luciferase, tunicamycin-induced, 15-18 h; at 10 µM; hits give high values. For orientation: A reporter such as luciferase makes a cellular process visible.
As a reminder, the inhibition is the drop in the measured response relative to a control, in per cent. For the molecule `NC(=O)Nc1ccc([As](=O)(O)O)cc1`, the inhibition is inactive: 0.66%.

For the molecule `CN(C(=O)Cc1ccccc1)[C@@H]1CC[C@]2(CCCO2)C[C@H]1N1CCCC1`, the inhibition was inactive: -7.6% and inactive: 19%.

As for `CCOP1(=S)c2c(C)nn(CCC#N)c2N=C(c2ccc(F)cc2)N1C` (configuration not stated), the inhibition was inactive: -14.8%.

As for `O=[N+]([O-])c1ccc2c(c1)nnn2O`, the inhibition is inactive: 30.3%.

On to `CCOP1(=S)c2c(C)nn(CCC#N)c2N=C(c2ccccc2F)N1C` (configuration not stated), for which the inhibition is inactive: 14%.

On to `O=P(Nc1nccs1)(c1ccccc1)c1nc2ccccc2s1` (configuration not stated), for which the inhibition was inactive: -34.4%.

In the case of `O=P(Nc1nccs1)(Oc1ccccc1)Oc1ccccc1`, the inhibition is inactive: -3.32%.

`CS(=O)(=O)c1cc([N+](=O)[O-])c2no[n+]([O-])c2c1`: the inhibition was inactive: -20.9%.

Take `Nc1ccccc1[As](=O)(O)c1ccccc1`: the inhibition is inactive: 2.92%.

`O=C(O)COc1ccc([As](=O)(O)O)cc1[N+](=O)[O-]`: the inhibition is inactive: 4.66%.

For the molecule `Cc1ccc(NCCc2c([N+](=O)[O-])cc([N+](=O)[O-])cc2[N+](=O)[O-])cc1`, the inhibition was inactive: 23.4%.

Consider `Nc1cccc2c([As](=O)(O)O)cccc12`, for which the inhibition was inactive: -16.3%.

For the molecule `CCCOP(=S)(Nc1nc(N)cc(=O)[nH]1)OCCC`, the inhibition is inactive: -10.6%.

As for `COc1cc(C2NCCC3(OCCO3)C2(C)C)cc(OC)c1OC` (configuration not stated), the inhibition is inactive: -40.4%.

Turning to `CCOP(=O)(Nc1cccc2ccccc12)OCC`, the inhibition was inactive: -16.1%.

For `O=C(OC1CN2CCC1CC2)c1ccc(Cl)cc1` (configuration not stated), the inhibition is inactive: 7.98%.

Consider `CN(C(=O)Cc1ccc(Cl)c(Cl)c1)[C@@H]1CC[C@]2(CCCO2)C[C@H]1N1CCCC1`, for which the inhibition was inactive: -1.14%.

In the case of `COc1cc(C(=O)NCC2(N3CCOCC3)CCCCC2)cc(Cl)c1OC(C)C`, the inhibition was inactive: 43.6%.

Take `O=[As](O)(O)c1cccnc1`: the inhibition is inactive: -3.07%.

For the molecule `O=[As](O)(c1cccc(O)c1)c1cccc(O)c1`, the inhibition is inactive: 1.88%.

Regarding `Cc1cccc(OCC(=O)OC2CN3CCC2CC3)c1` (configuration not stated), the inhibition is inactive: 6.42%.

Regarding `CC(C)/C=N\N=C(\N)N[N+](=O)[O-]`, the inhibition was inactive: 20.5%.

For `CN(C(=O)Cc1ccc(Cl)c(Cl)c1)[C@@H]1CCCC[C@H]1N1CCCC1`, the inhibition was inactive: 2.99% and inactive: -3.3%.

In the case of `O=[As](O)(c1ccccc1Br)c1ccccc1Br`, the inhibition is inactive: 4.96%.

Consider `O=P1(Nc2ccccn2)COc2ccccc2OC1`, for which the inhibition was inactive: 55.4%.

With `CN(CCCl)Cc1cc(Cl)c(NC2=NCCN2)c(Cl)c1`, the inhibition was inactive: -9.47%.

As to `CCOP(=O)(Nc1ccc(C)cn1)OCC`, the inhibition is inactive: -2.37%.

With `Clc1n[nH]nc1-c1nn[nH][15n]1`, the inhibition is inactive: 10.6%.

For `CC(C)(C)C(=O)NC(Sc1ncccn1)C(Cl)(Cl)Cl` (configuration not stated), the inhibition is inactive: 9.96%.

As to `O=P1(Nc2ncccn2)COc2ccccc2OC1`, the inhibition is inactive: 2.37%.

For the molecule `Nc1cccc([As](=O)(O)c2ccccc2)c1`, the inhibition is inactive: 0.63%.

Regarding `O=P1(Nc2ccc(Br)cn2)COc2ccccc2OC1`, the inhibition is inactive: 26.1%.

On to `Cc1ccc(OCC(=O)OC2CN3CCC2CC3)cc1` (configuration not stated), for which the inhibition is inactive: 23.3%.

Consider `O=[As](O)(c1cccs1)c1cccs1`, for which the inhibition is inactive: -25.7%.

In the case of `Cc1nn(-c2ccccc2)c2c1P(=O)(N1CCOCC1)N(C)C(c1ccccc1)=N2` (configuration not stated), the inhibition is inactive: 28%.

Consider `CC1CCC(C(C)C)C(OP(=O)(Nc2ccccn2)c2ccccc2)C1` (configuration not stated), for which the inhibition was active: 82.6%.

Turning to `CN(C)C1(CNC(=O)c2ccc(S(C)(=O)=O)cc2)CCCCC1`, the inhibition was inactive: 21.1%.

With `O=C(/C=C/c1ccccc1)OC1CN2CCC1CC2` (configuration not stated), the inhibition was inactive: 0.13%.

Take `CCOC(=O)Nc1cccc([As](=O)(O)O)c1`: the inhibition is inactive: -3.98%.

Regarding `O=P(Nc1ccccn1)(c1cccc2ccccc12)c1cccc2ccccc12`, the inhibition is inactive: 14.9%.

In the case of `Cc1cc(SC(NC=O)C(Cl)(Cl)Cl)ncn1` (configuration not stated), the inhibition is inactive: -4.45%.

Consider `O=[N+]([O-])c1ccc(Nc2ccc(Oc3ccc([N+](=O)[O-])cc3[N+](=O)[O-])cc2)c([N+](=O)[O-])c1`, for which the inhibition was inactive: 0.95%.

Regarding `CCOC(=O)Nc1ccc([As](=O)(O)O)c(O)c1`, the inhibition was inactive: 11.2%.

Turning to `Cc1cc(SC(NC(=O)c2ccccc2)C(Cl)(Cl)Cl)nc(C(C)C)n1` (configuration not stated), the inhibition was inactive: 22%.

With `CCOC(=O)c1ccc(NC(=O)C(C)(CCl)SC)cc1` (configuration not stated), the inhibition was inactive: -11.3%.

Regarding `CCC(C)N(CC(C)C)C(=S)SC(NC(C)=O)C(Cl)(Cl)Cl` (configuration not stated), the inhibition is inactive: -24.1%.

In the case of `COP1(=S)c2c(C)nn(CCC#N)c2N=C(c2ccc(F)cc2)N1C` (configuration not stated), the inhibition was inactive: 0.61%.

Turning to `O=C(COc1ccccc1)OC1CN2CCC1CC2` (configuration not stated), the inhibition was inactive: 10.6%.

Turning to `COc1ccc(N/C(=N/P(=O)(N2CCOCC2)N2CCOCC2)N2CCOCC2)cc1`, the inhibition was inactive: 4.68%.

For `Cc1c2c(nc3ccccc13)SC(C(Cl)Cl)C2` (configuration not stated), the inhibition is inactive: 51.1%.

On to `O=C(OC1CN2CCC1CC2)C12CC3CC(CC(C3)C1)C2` (configuration not stated), for which the inhibition is inactive: 3.65%.

Consider `Cc1cc(=O)[nH]c(N[N+](=O)[O-])n1`, for which the inhibition is inactive: -2.1%.

For the molecule `COc1ccc2nc(NP(=O)(c3ccccc3)c3ccccc3)sc2c1`, the inhibition was inactive: -30.1%.

Turning to `COc1cc(I)ccc1[As](=O)(O)O`, the inhibition is inactive: 13.9%.

As for `ClCCSc1nnc(-c2cccnc2)o1`, the inhibition is inactive: 1.14%.

On to `CC(C)c1ccc(OP(=O)(Nc2ccccn2)Oc2ccccc2F)cc1` (configuration not stated), for which the inhibition is inactive: 26%.

For `CCN(CC)C(=S)SC(NC=O)C(Cl)(Cl)Cl` (configuration not stated), the inhibition is inactive: 19.5%.

For the molecule `CC(C)NC(=O)NP(=O)(Oc1ccccc1)Oc1ccccc1`, the inhibition was inactive: 4.66%.

As to `O=[N+]([O-])c1cc([N+](=O)[O-])c(-c2ccn[nH]2)s1`, the inhibition was inactive: 13.7%.

Consider `C[As](=O)(O)c1cccc(C(=O)O)c1`, for which the inhibition is inactive: 16%.

`O=[As](O)(c1ccc(O)cc1)c1ccccc1O`: the inhibition is inactive: -11.1%.

Take `Cc1ccc(OP(=O)(Nc2ccc([N+](=O)[O-])cn2)Oc2ccc(C)cc2)cc1`: the inhibition was inactive: -6.24%.

As for `Cc1ccc2nc3c(c(C)c2c1)CC(C(Cl)Cl)S3` (configuration not stated), the inhibition was inactive: 50.2%.

In the case of `Nc1cccc2ccc([As](=O)(O)O)cc12`, the inhibition is inactive: 20.6%.

For `CCN(N=Nc1nonc1N)c1nonc1N`, the inhibition is inactive: 33.4%.

For `O=P(Nc1nc2ccc(Cl)cc2s1)(c1ccccc1)c1ccccc1`, the inhibition is inactive: -79.6%.

For the molecule `O=C(O)c1ccccc1[As](=O)(O)O`, the inhibition was inactive: 14.5%.

In the case of `CC(=O)Nc1ccc([As](=O)(O)O)cc1`, the inhibition was inactive: -2.52%.

Take `CCOP(=O)(Nc1ccccc1)OCC`: the inhibition is inactive: -9.19% and inactive: -18.6%.

`Cc1cc(SC(NC(=O)c2ccc(F)cc2)C(Cl)(Cl)Cl)ncn1` (configuration not stated): the inhibition is inactive: 8.82%.

`Cc1ccc(NP(=O)(Oc2ccccc2F)Oc2ccccc2F)nc1`: the inhibition is inactive: 1.87%.

As for `CN(C(=O)Cc1ccc(Cl)c(Cl)c1)[C@H]1CCCC[C@@H]1N1CCCC1`, the inhibition was inactive: -3.92% and inactive: -2.64%.

In the case of `Oc1ccccc1CNc1ccccn1`, the inhibition was inactive: 31.7%.

For `Cc1c2non([O-])c-2c(C)[n+](=O)[n+]1[O-]`, the inhibition was active: 87.9%.

With `O=C(NC(Sc1ccncn1)C(Cl)(Cl)Cl)c1ccccc1` (configuration not stated), the inhibition is inactive: 11.3%.

Take `CC(C)CC(=O)NC(Sc1ccc(Cl)cc1)C(Cl)(Cl)Cl` (configuration not stated): the inhibition was inactive: 50.9%.

Turning to `Nc1cc(N)c2nonc2c1[N+](=O)[O-]`, the inhibition is inactive: 5.25%.

As for `Cc1ccc(N/C(=N/P(=O)(N2CCOCC2)N2CCOCC2)N2CCOCC2)cc1`, the inhibition was inactive: 16.9%.

Consider `NC(=O)c1cc([N+](=O)[O-])cc([N+](=O)[O-])c1N`, for which the inhibition was inactive: 4.72%.

In the case of `Clc1ccc(Cl)c(NC2=NCC(CBr)S2)c1` (configuration not stated), the inhibition was inactive: 5.28%.

As to `CN1CCCC(OC(=O)C(c2ccccc2)c2ccccc2)C1` (configuration not stated), the inhibition is inactive: -0.62%.

Regarding `COc1ccccc1OP(=O)(Nc1ccc(C)cn1)Oc1ccccc1OC`, the inhibition was inactive: 9.71%.

As to `Cc1ccc(OP(=O)(Nc2nccs2)Oc2ccc(C)cc2)cc1`, the inhibition was inactive: 8.66%.

`CCN(/C(=N/P(=O)(N1CCOCC1)N1CCOCC1)N1CCOCC1)c1ccc(OC)cc1`: the inhibition is inactive: 3.46%.

`Nc1ccc([As](=O)(O)c2ccc(N)cc2)cc1`: the inhibition was inactive: -6.1%.

As for `C[N+]1=C2C=CC=CC=C2SC12C([N+](=O)[O-])=CC([N+](=O)[O-])=C[C-]2[N+](=O)[O-]` (configuration not stated), the inhibition is active: 101%.

Regarding `CC1CCN(C(=O)Oc2c(Cl)cc(Cl)c3cccnc23)CC1`, the inhibition was inactive: 68%.

Turning to `CC(C)=N/N=C(\N)N[N+](=O)[O-]`, the inhibition is inactive: -18.3%.

Consider `CN(C)C(=O)OCCc1n(C)cc[n+]1C`, for which the inhibition is inactive: 4.97%.

With `COc1ccc(C2=NCC(CBr)S2)cc1` (configuration not stated), the inhibition is inactive: 8.02%.

In the case of `Cc1ccc(NP(=O)(Oc2ccccc2)Oc2ccccc2)nc1`, the inhibition was inactive: 23.9%.

Take `O=[N+]([O-])c1cc([N+](=O)[O-])c(CCNc2ccccc2)c([N+](=O)[O-])c1`: the inhibition is inactive: -10.2%.

`O=[N+]([O-])c1cccc2n[nH]nc12`: the inhibition is inactive: 13%.

With `CC(=O)N1C2C3N(C(C)=O)C1C1N(C(C)=O)C(C(N1C(C)=O)N3C(C)=O)N2C(C)=O`, the inhibition is inactive: 20.1%.

With `O=[N+]([O-])c1ncn(CCn2ncnc2[N+](=O)[O-])n1`, the inhibition is inactive: 9.19%.

In the case of `CC(C)(C)C(=O)NC(Sc1ccncn1)C(Cl)(Cl)Cl` (configuration not stated), the inhibition is inactive: 4.21%.

On to `O=C(O)CNc1ccc([As](=O)(O)O)cc1`, for which the inhibition was inactive: -9.43%.

Take `O=[N+]([O-])c1cccc(NC2=NCC(CBr)S2)c1` (configuration not stated): the inhibition was inactive: 10.4%.

As for `O=C(Nc1cc([As](=O)(O)O)ccc1O)c1ccccc1`, the inhibition is inactive: 19.1%.

As to `O=[As](O)(c1ccccc1)c1ccc(O)cc1`, the inhibition is inactive: -7.43%.

For the molecule `CC(=O)NC(SC(=S)N(C)C)C(Cl)(Cl)Cl` (configuration not stated), the inhibition was inactive: -68.1%.

Consider `O=[N+]([O-])c1ncn(CCn2cnc([N+](=O)[O-])n2)n1`, for which the inhibition was inactive: 4.55%.
